Measured values taken from US12172975B2, “1H-indazole carboxamides as receptor-interacting protein kinase 1 inhibitors (RIPK1)” (BRISTOL-MYERS SQUIBB COMPANY, priority 2018, dated 2024).

System: MLKL phosphorylation in HT29-L23 human colorectal adenocarcinoma cells
Assay: MLKL Phosphorylation High-Content Assay
Format: cell-based
Settings: read-out: pMLKL (IC50), necroptosis induced with TNFα, SMAC mimetic and Z-VAD, 6 h

[2H]C([2H])([2H])Oc1ncc(-c2ccc3c(C(=O)NC4CC4)n[nH]c3c2)cc1C(=O)NCC[C@H](O)c1ccc(Cl)cc1
IC50: 0.023 µM
